Active and inactive are the calls of the source. The rule behind the calls is not given here.
How the values were obtained:
[1] = target: Mu-type opioid receptor (Homo sapiens) (UniProt P35372); test: Displacement of [3H]DAMGO from human mu opioid receptor expressed in HEK293 cell membrane assessed as inhibition of radioligand binding at 100 nM incubated for 120 mins by competition binding based scintillation counter analysis relative to control
[2] = target: Sodium-dependent serotonin transporter (Homo sapiens) (UniProt P31645); test: Displacement of [3H]-imipramine from human 5-HT transporter expressed in CHO cell membrane assessed as inhibition of radioligand binding at 100 nM incubated for 60 mins by competition binding based scintillation counter analysis relative to control; type: cell membranes
[3] = target: D(1A) dopamine receptor (Homo sapiens) (UniProt P21728); test: Displacement of [3H]SCH-23390 from human dopamine D1 receptor expressed in CHO cell membrane assessed as inhibition of radioligand binding at 100 nM incubated for 60 mins by competition binding based scintillation counter analysis relative to control; type: cell membranes
[4] = target: D(2) dopamine receptor (Homo sapiens) (UniProt P14416); test: Displacement of [3H]7-OH-DPAT from human dopamine D2 receptor expressed in HEK293 cell membrane assessed as inhibition of radioligand binding at 100 nM incubated for 60 mins by competition binding based scintillation counter analysis relative to control; type: cell membranes
[5] = target: 5-hydroxytryptamine receptor 2A (Homo sapiens) (UniProt P28223); test: Displacement of [125I]DOI from human 5-HT2A receptor expressed in HEK293 cell membrane assessed as inhibition of radioligand binding at 100 nM incubated for 60 mins by competition binding based scintillation counter analysis relative to control; type: cell membranes; settings: filed as antagonist
[6] = target: Mu-type opioid receptor (Homo sapiens) (UniProt P35372); test: Displacement of [3H]DAMGO from human mu opioid receptor expressed in HEK293 cell membrane assessed as inhibition of radioligand binding at 30 nM incubated for 120 mins by competition binding based scintillation counter analysis relative to control
[7] = tested on: Mus musculus; test: Analgesic activity in thermal stimulated CD-1 mouse assessed as increase in latency to pain response at po administration measured after 30 mins by tail flick assay
[8] = tested on: Mus musculus; test: Analgesic activity in thermal stimulated CD-1 mouse assessed as increase in latency to pain response at 0.1 to 1 mg/kg,SC administration once daily for 14 days by tail flick assay; settings: dose 0.1-1 mg/kg, time 14.0 day
[9] = tested on: Mus musculus; test: Analgesic activity in thermal stimulated CD-1 mouse assessed as increase in latency to pain response at 3 mg/kg,SC administration once daily for 14 days by tail flick assay; settings: time 14.0 day
[10] = target: Mu-type opioid receptor (Homo sapiens) (UniProt P35372); test: Partial agonist activity at recombinant human mu opioid receptor expressed in CHO-K1 cells assessed as inhibition of forskolin induced cAMP production by measuring maximal efficacy by whole cell-based assay relative to control
[11] = tested on: Mus musculus; test: Analgesic activity in thermal stimulated CD-1 mouse assessed as increase in latency to pain response at 0.1 to 1 mg/kg,SC administration measured after 30 mins on day 15 by tail flick assay; settings: dose 0.1-1 mg/kg
[12] = tested on: Mus musculus; test: Analgesic activity in thermal stimulated CD-1 mouse assessed as increase in latency to pain response at 0.3 mg/kg,SC administration once daily for 14 days by tail flick assay; settings: time 14.0 day
[13] = tested on: Mus musculus; test: Analgesic activity in thermal stimulated CD-1 mouse assessed as increase in latency to pain response at SC administration measured after 30 mins by tail flick assay
[14] = species: Mus musculus; test: Analgesic activity against formalin-induced inflammatory pain C57Bl/6 mouse model assessed as reduction in licking response at SC pretreated for 30 min followed by formalin challenge and measured after 30 mins; settings: time 60.0 min
[15] = tested on: Mus musculus; test: Analgesic activity in naloxone induced CD-1 mouse assessed as increase in latency to pain response at 1 to 10 mg/kg,po administration measured after 30 mins by tail flick assay; settings: dose 1-10 mg/kg

By UniProt entry, the sequences of proteins in these tests, tags left out.
UniProt P35372, whole entry, looked up: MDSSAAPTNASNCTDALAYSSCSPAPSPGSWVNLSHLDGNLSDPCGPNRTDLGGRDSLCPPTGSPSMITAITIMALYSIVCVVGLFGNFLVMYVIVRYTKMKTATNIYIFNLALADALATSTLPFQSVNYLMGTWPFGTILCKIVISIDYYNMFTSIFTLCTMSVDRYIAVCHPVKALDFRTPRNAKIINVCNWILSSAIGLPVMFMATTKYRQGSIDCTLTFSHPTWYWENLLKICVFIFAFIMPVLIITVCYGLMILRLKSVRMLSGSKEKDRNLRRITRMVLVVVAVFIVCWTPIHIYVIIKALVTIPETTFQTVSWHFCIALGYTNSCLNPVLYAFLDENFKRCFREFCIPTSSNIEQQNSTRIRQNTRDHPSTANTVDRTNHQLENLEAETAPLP
UniProt P31645, whole entry, looked up: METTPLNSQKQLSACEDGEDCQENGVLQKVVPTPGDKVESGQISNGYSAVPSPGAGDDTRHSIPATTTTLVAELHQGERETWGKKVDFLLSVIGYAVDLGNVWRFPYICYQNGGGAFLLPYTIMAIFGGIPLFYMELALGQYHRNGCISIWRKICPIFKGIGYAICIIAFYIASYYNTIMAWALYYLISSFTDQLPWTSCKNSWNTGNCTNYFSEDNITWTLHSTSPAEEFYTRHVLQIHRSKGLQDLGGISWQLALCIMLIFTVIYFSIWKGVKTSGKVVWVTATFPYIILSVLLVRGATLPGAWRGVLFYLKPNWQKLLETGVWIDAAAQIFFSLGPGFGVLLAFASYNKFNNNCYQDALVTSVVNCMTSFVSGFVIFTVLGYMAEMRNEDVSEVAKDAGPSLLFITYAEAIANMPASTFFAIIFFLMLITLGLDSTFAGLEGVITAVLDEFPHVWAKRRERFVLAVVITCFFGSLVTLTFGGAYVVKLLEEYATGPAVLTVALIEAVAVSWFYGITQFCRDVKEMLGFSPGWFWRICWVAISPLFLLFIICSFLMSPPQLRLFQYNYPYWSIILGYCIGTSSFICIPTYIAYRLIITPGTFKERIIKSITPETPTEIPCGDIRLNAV
UniProt P21728, whole entry, looked up: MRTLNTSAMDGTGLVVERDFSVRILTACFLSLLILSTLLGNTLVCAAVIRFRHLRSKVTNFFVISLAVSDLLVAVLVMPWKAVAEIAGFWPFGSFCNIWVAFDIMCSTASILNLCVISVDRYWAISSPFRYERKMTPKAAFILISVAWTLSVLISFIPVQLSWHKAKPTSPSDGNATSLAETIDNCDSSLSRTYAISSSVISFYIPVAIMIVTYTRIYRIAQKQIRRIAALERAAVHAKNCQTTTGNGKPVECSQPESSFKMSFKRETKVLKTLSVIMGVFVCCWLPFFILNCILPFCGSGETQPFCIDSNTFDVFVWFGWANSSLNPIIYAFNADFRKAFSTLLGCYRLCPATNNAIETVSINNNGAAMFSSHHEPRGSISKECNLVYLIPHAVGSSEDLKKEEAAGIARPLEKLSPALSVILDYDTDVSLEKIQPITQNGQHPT
UniProt P14416, whole entry, looked up: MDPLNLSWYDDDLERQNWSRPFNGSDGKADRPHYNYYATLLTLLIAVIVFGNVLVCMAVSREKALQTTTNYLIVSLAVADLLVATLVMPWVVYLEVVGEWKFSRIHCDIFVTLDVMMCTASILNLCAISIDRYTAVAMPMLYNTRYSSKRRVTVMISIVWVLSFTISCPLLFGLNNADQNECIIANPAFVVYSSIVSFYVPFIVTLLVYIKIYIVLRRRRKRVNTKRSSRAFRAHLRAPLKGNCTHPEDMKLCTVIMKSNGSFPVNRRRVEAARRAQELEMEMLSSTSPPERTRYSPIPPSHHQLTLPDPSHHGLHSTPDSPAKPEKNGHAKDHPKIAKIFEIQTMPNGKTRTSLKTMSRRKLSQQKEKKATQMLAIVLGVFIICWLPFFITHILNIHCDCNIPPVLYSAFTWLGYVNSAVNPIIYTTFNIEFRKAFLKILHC
UniProt P28223, whole entry, looked up: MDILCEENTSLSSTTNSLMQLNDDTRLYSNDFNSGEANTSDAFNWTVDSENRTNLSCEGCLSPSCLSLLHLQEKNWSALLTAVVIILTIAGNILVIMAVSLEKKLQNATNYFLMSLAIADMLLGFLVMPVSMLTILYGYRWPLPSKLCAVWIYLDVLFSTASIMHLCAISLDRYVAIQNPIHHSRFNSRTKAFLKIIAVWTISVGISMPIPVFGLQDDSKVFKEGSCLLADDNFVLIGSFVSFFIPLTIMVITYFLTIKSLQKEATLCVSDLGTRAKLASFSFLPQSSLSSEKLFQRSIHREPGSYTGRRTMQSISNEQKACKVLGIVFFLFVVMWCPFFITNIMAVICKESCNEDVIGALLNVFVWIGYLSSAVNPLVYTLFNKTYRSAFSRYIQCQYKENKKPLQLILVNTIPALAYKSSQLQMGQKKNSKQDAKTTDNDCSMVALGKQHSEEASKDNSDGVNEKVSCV

SMILES: O=C1CN2c3c(cccc3[C@@H]3CN(CCCOc4ccccc4)CC[C@@H]32)N1
- inhibition ([1]; filed as partial agonist): 61%

SMILES: O=C1CN2c3c(cccc3[C@@H]3CN(CCCOc4ccc(OCc5ccccc5)cc4)CC[C@@H]32)N1
- inhibition ([1]; filed as partial agonist): 56%

SMILES: O=C1CN2c3c(cccc3[C@@H]3CN(CCCCOc4ccc(F)cc4)CC[C@@H]32)N1
- inhibition [1]: 39%

SMILES: CCCCN1CC[C@H]2[C@@H](C1)c1cccc3c1N2CC(=O)N3
- inhibition [1]: inactive

SMILES: O=C1CN2c3c(cccc3[C@@H]3CN(CCCOc4ccc(F)cc4F)CC[C@@H]32)N1
- inhibition [2]: inactive
- inhibition [3]: 21%
- inhibition [4]: 36%
- inhibition [5]: 85%
- inhibition ([1]; filed as partial agonist): 61%

SMILES: CC1C(=O)Nc2cccc3c2N1[C@H]1CCN(CCCOc2ccc(F)cc2)C[C@@H]31 (stereo not given in full)
- inhibition ([1]; filed as partial agonist): 40%

SMILES: O=C1CN2c3c(cccc3[C@@H]3CN(CCCOc4ccc5c(c4)OCO5)CC[C@@H]32)N1
- inhibition [6]: 29%

SMILES: O=C1CN2c3c(cccc3[C@@H]3CN(CCCOc4ccc(Br)cc4)CC[C@@H]32)N1
- inhibition ([1]; filed as partial agonist): 90%

SMILES: O=C1CN2c3c(cccc3[C@@H]3CN(CCCS(=O)(=O)c4ccc(F)cc4)CC[C@@H]32)N1
- inhibition [1]: inactive

SMILES: O=C1CN2c3c(cccc3[C@@H]3CN(CCCNc4ccc(F)cc4)CC[C@@H]32)N1
- inhibition ([1]; filed as partial agonist): 83%

SMILES: O=C1CN2c3c(cccc3[C@@H]3CN(CCCOc4ccc(F)cc4O)CC[C@@H]32)N1
- inhibition [2]: 5%
- inhibition [3]: 22%
- inhibition ([4]; filed as antagonist): 45%
- inhibition [5]: 70%
- inhibition [1]: 22%

SMILES: Cc1ccc(OCCCN2CC[C@H]3[C@@H](C2)c2cccc4c2N3CC(=O)N4)cc1
- inhibition ([1]; filed as partial agonist): 53%

SMILES: NC(=O)c1cc(F)ccc1OCCCN1CC[C@H]2[C@@H](C1)c1cccc3c1N2CC(=O)N3
- inhibition ([1]; filed as partial agonist): 76%

SMILES: O=C1CCN2c3c(cccc3[C@@H]3CN(CCCOc4ccc(F)cc4)CC[C@@H]32)N1
- inhibition [1]: 38%

SMILES: O=C1CN2c3c(cccc3[C@@H]3CN(CCCOc4ccc(O)cc4)CC[C@@H]32)N1
- inhibition [1]: 13%

SMILES: CC1(C)C(=O)Nc2cccc3c2N1[C@H]1CCN(CCCOc2ccc(F)cc2)C[C@@H]31
- inhibition [2]: inactive
- inhibition [3]: 27%
- inhibition ([4]; filed as antagonist): 57%
- inhibition [5]: 89%
- inhibition [1]: 8%

SMILES: O=C1CN2c3c(cccc3[C@@H]3CN(CCCOc4ccccc4F)CC[C@@H]32)N1
- inhibition [1]: 33%

SMILES: O=C1CN2c3c(cccc3[C@@H]3CN(CCCOc4cccc(F)c4)CC[C@@H]32)N1
- inhibition ([1]; filed as partial agonist): 72%

SMILES: O=C1CN2c3c(cccc3[C@@H]3CN(CCCOc4ccc(F)cc4)CC[C@@H]32)N1
- Activity [7]: Dose-Dependent Effect
- Activity [8]: Active
- Activity [9]: Active
- Emax [10]: 22%
- Activity [11]: Active
- Activity [12]: Active
- Activity [13]: Dose-Dependent Effect
- Activity [14]: Dose-Dependent Effect
- Activity [15]: inactive

SMILES: Cc1cc(F)cc(C)c1OCCCN1CC[C@H]2[C@@H](C1)c1cccc3c1N2CC(=O)N3
- inhibition ([1]; filed as partial agonist): 84%

SMILES: O=C1CN2c3c(cccc3[C@@H]3CN(CCCOc4ccc(F)c(O)c4)CC[C@@H]32)N1
- inhibition [2]: 13%
- inhibition [3]: 25%
- inhibition [4]: inactive
- inhibition [5]: 46%
- inhibition [1]: 23%

SMILES: CN(CCCN1CC[C@H]2[C@@H](C1)c1cccc3c1N2CC(=O)N3)c1ccc(F)cc1
- inhibition [1]: 22%

SMILES: COc1ccc(OCCCN2CC[C@H]3[C@@H](C2)c2cccc4c2N3CC(=O)N4)cc1
- inhibition [1]: inactive

SMILES: O=C1CN2c3c(cccc3[C@@H]3CN(CCCSc4ccc(F)cc4)CC[C@@H]32)N1
- inhibition ([1]; filed as partial agonist): 73%

SMILES: O=C1CN2c3c(cccc3[C@@H]3CN(CCOc4ccc(F)cc4)CC[C@@H]32)N1
- inhibition [1]: 30%

SMILES: O=C1CN2c3c(cccc3[C@@H]3CN(CCCO)CC[C@@H]32)N1
- inhibition [1]: 11%

Source: ChEMBL document CHEMBL5506064, “Discovery of ITI-333, a Novel Orally Bioavailable Molecule Targeting Multiple Receptors for the Treatment of Pain and Other Disorders” (J Med Chem, 2024)
